System: EGFR, P-EGFR, Met, P-Akt in HCC827 cells
Assay: Protein expression by immunoblot, HCC827
Format: cell-based, human
Details: treatment at 10 μM
Method: Tubulin (Tub) serve as loading controls. One representative experiment out of two is presented.
Cells were treated by either DMSO (0.5%) or increasing doses of the selected molecules from 1 μM to 10 μM over 6 to 24 hours as indicated. […] Tubulin was detected using anti α-tubulin primary antibody (in-house: the polyclonal Glu-tubulin antibody (L4) is available commercially from Abcys (Paris, France)). HRP-coupled anti-rabbit (#A6154) and anti-mouse (#A4416) secondary antibodies were purchased from Sigma. HRP activity was detected through HRP chemoluminescence detection reagent (Millipore, #WBLUF0100). […] Positive control was Epotoside at 50 μM or 100 μM, a known drug inducing cancerous cell death by apoptosis.

Compound: COc1cc2ncnc(Nc3ccc(F)c(Cl)c3)c2cc1OCCCN1CCOCC1 [Gefitinib, reference compound]
- effect on P-EGFR or EGFR levels, HCC827: had no effect

From patent publication US11306063B2, “Heterocyclic naphthoquinones derivatives for use in the treatment of cancers including Cushing disease” (Commissariat a l'Energie Atomique et aux Energies …, priority 2016, dated 2022)
